Experimental findings from ChEMBL document CHEMBL1138340, “Cannabilactones: a novel class of CB2 selective agonists with peripheral analgesic activity” (J Med Chem, 2007) are described below.

Amino acid sequences for entries named in this document (tags omitted). A change or cut given only in a name is not applied to a line headed by its entry.
UniProt P47936: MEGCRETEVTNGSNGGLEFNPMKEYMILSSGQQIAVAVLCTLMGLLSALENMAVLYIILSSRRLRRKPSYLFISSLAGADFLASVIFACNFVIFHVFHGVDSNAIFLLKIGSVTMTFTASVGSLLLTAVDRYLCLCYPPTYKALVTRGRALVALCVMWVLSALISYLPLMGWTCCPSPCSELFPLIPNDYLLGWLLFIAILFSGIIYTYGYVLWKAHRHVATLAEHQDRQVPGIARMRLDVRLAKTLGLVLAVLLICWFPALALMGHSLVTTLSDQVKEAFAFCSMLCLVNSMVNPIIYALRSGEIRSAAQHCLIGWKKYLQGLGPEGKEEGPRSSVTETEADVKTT

A short description of experiment [1]: Selectivity of mouse CB2 receptor over rat CB1 receptor. The method in brief: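 Ratio of Ki values from [3H]CP55,940 displacement using rat brain synaptosomal membranes (CB1) and mouse spleen membranes (CB2). Both incubated 1 h at 30 °C in TME with 0.1% BSA. IC50 from three independent experiments converted to Ki by Cheng–Prusoff.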
The target of experiment [2] is Cannabinoid receptor 2 (Mus musculus) (UniProt P47936). In words: Agonist activity at CB2 receptor in mouse spleen membranes assessed as inhibition of forskolin-stimulated cAMP production. The experiment is classed as functional, cell membranes. As to conditions: Membrane.
For experiment [3] the target is unchanged. In words: Agonist activity at CB2 receptor in mouse spleen membranes at 1 uM after 2 hrs by [35S]GTP-gamma-S binding assay. The experiment is classed as functional, cell membranes. Particulars: Membrane. The procedure, abridged: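 Mouse spleen lysed in a cell disruption bomb, centrifuged at 1000 g then 175000 g, and resuspended in TME with 0.1% BSA. Membranes (24–40 µg) incubated 2 h at 30 °C with test compound at 1 µM, 30 µM GDP and 0.05 nM [35S]GTPγS. Nonspecific binding defined with 10 µM unlabeled GTPγS. Bound label measured after GF/B filtration by scintillation counting. Reported with standard deviations.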
For orientation: GTPγS is a poorly hydrolysed GTP analogue; its binding reports G protein activation.

Calls of active or inactive are those of the source. No cut-off for these calls is given here.

Turning to `CCCCCCC(C)(C)c1cc(O)c2c(c1)oc(=O)c1ccc(C)cc12`, the Ratio Ki in experiment [1] was 13. In addition, the result in experiment [2] was Active. For the same compound, the Activity in experiment [3] was determined as 56%.
